{"sequences": {"note": "Protein sequences, listed by entry. Tags and fused reporters are not part of them. Lines headed by an entry give the natural chain unless they say otherwise; changes in a name come on top.", "UniProt P35414": "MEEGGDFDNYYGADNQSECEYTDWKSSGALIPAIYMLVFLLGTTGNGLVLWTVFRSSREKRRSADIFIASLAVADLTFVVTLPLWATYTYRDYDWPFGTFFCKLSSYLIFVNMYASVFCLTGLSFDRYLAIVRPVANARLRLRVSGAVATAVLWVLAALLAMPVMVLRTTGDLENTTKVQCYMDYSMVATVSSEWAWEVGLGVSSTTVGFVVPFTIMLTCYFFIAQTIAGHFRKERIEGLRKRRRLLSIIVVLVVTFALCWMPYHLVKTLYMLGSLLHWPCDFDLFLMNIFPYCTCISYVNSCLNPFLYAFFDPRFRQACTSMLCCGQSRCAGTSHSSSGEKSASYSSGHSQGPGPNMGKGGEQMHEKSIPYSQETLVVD"}, "source": "patent US11498903B2", "about": "“2-(1,1′-biphenyl)-1H-benzodimidazole derivatives and related compounds as apelin and APJ agonists for treating cardiovascular diseases” (BRISTOL-MYERS SQUIBB COMPANY, priority 2017, dated 2022)", "origin": "cited, not measured here", "target": "APJ receptor (Homo sapiens, UniProt P35414)", "details": "reported, Pitkin et al. 2010; cited from earlier work", "data": [{"substance": "apelin", "values": [{"measurement": "binding affinity", "value": "sub-nanomolar range"}]}]}
